Data reported in PMC5962708, “Structure-Based Design, Synthesis, Biological Evaluation, and Molecular Docking of Novel PDE10 Inhibitors With Antioxidant Activities” (Frontiers in Chemistry, 2018).

By UniProt entry, the sequences of proteins in these tests, tags left out. Residues count along the entry.
UniProt Q9Y233, 712-1055: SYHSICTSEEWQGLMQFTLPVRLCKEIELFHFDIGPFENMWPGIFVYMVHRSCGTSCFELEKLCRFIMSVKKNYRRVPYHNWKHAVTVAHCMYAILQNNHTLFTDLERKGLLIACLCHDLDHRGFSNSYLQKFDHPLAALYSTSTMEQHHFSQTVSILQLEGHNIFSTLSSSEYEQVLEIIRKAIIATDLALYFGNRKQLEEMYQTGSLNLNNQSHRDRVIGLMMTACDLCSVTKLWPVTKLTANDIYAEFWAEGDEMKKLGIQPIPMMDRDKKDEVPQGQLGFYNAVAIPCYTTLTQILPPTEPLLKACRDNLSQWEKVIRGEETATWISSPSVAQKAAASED

Target: T1, PDE10A catalytic domain (residues 446-789) (Homo sapiens, UniProt Q9Y233)
T1 construct: coding the catalytic domain (residues 446-789); inferred from the pET15b vector and the Ni-NTA purification) (N); made in house; host or cells: E. coli BL21 (Codonplus, Stratagene)
Test: PDE10A enzymatic assay (3H-cGMP hydrolysis, scintillation counting)
Format: biochemical
Settings: PDE10 inhibitory assay IC50 (μM), mean of three independent determinations; 3H-cGMP substrate
Method: The recombinant pET15b-PDE10A plasmid coding the catalytic domain (residues 446-789) was subcloned and purified according to the following protocols previously reported (Li et al., [2015]). Then it was transferred into E. coli strain BL21 (Codonplus, Stratagene). The E. coli cells carrying the recombinant plasmid were cultured in an 2XYT medium (containing 100 μg/mL ampicillin and 30 μg/mL chloramphenicol) at 37°C until OD600 = 0.6-0.8. And then, 1 mM isopropyl-β-D-thiogalactopyranoside was added in to induce the PDE10A protein expression at 20°C for 24 h. The nickel nitriloacetic acid (Ni-NTA) column (Qiagen) was used for purifying PDE10A proteins. The concentration of the PDE10 fractions was estimated based on the absorbance at 280 nm (calculated by the ProtParam software).
The enzymatic activities of the catalytic domains of PDE10A were performed using ^3H-cGMP solution in the assay buffer of 50 mM Tris pH = 7.5, 4 mM MgCl2, 1 mM DTT, and ^3H-cGMP giving 20,000–30,000 cpm after the reaction terminated per assay. […] The radioactivity in the supernatant was measured in 2.5 mL Ultima Gold liquid scintillation cocktails (PerkinElmer) by a liquid scintillation counter (PerkinElmer 2910). The IC50 values of test compounds at PDE10A enzymes were measured by repeating of three independent experiments using the nonlinear regression method.

COc1ccc(Cc2nccc3cc(OC)c(OC)cc23)cc1OC [Papaverine, reference compound]
IC50: 0.1 µM
